Measured values taken from patent publication US8012982B2, “Modulators of HCV replication” (priority 2004, dated 2011).

How the values were obtained:
Test in all cases: microbe, parasite or virus in culture
Assay type in all cases: cell-based
pHCVNeo17.m33 replicon = details: Hepatitis C virus; replicon pHCVNeo17.m33: K@2039, H2057R; read-out: Cmpd Ib IC50
pHCVNeo17.m32 replicon = details: Hepatitis C virus; replicon pHCVNeo17.m32: K@2039, A2064V; read-out: Cmpd Ib IC50
pHCVNeo17.m10 replicon = details: Hepatitis C virus
pHCVNeo17.m52 replicon = details: Hepatitis C virus; replicon pHCVNeo17.m52: E1202G, K@2039, T2216I; read-out: Cmpd Ib IC50
pHCVNeo17.m65 replicon = details: Hepatitis C virus; replicon pHCVNeo17.m65: E1202G, K@2039, R2129W; read-out: Cmpd Ib IC50
pHCVNeo17.m44 replicon = details: Hepatitis C virus; replicon pHCVNeo17.m44: E1202G, K@2039, A2064V; read-out: Cmpd Ib IC50
pHCVNeo17.m46 replicon = details: Hepatitis C virus; replicon pHCVNeo17.m46: E1202G, K@2039, H2057R, A2064V; read-out: Cmpd Ib IC50
pHCVNeo17.m47 replicon = details: Hepatitis C virus; replicon pHCVNeo17.m47: E1202G, K@2039, H2057R; read-out: Cmpd Ib IC50
pHCVNeo17.m22 replicon = details: Hepatitis C virus; replicon pHCVNeo17.m22: E1202G, K@2039, S2404P; read-out: Cmpd Ib IC50

CC(C)(C)OC(=O)N1CCN(c2ccc(C(=O)Nc3ccc(O)cc3)cc2)CC1 [Example 101, tert-butyl 4-(4-{[(4-hydroxyphenyl)amino]carbonyl}phenyl)piperazine-1-carboxylate]
IC50 (pHCVNeo17.m33 replicon): 31 nM | IC50 (pHCVNeo17.m32 replicon): > 2000 nM | IC50 (pHCVNeo17.m10 replicon; 96 h, subgenomic pHCVNeo17.m10, Con1, E1202G + K@2039, 10AIFN cells, four days after transfection, read-out: IC50): 100 nM | IC50 (pHCVNeo17.m10 replicon; replicon pHCVNeo17.m10: E1202G, K@2039, read-out: Cmpd Ib IC50): 100 nM | IC50 (pHCVNeo17.m52 replicon): 40 nM | IC50 (pHCVNeo17.m65 replicon): > 2000 nM | IC50 (pHCVNeo17.m44 replicon): > 2000 nM | IC50 (pHCVNeo17.m46 replicon): > 2000 nM | IC50 (pHCVNeo17.m47 replicon): 60 nM | IC50 (pHCVNeo17.m22 replicon): 38 nM

Where two headings read alike, the source gives them in different places.
